# Test results: PubChem BioAssay AID602396 (The Scripps Research Institute Molecular Screening Center, 2012)
# Amino acid sequences for entries named in this document (tags omitted).
# UniProt O00482, whole entry: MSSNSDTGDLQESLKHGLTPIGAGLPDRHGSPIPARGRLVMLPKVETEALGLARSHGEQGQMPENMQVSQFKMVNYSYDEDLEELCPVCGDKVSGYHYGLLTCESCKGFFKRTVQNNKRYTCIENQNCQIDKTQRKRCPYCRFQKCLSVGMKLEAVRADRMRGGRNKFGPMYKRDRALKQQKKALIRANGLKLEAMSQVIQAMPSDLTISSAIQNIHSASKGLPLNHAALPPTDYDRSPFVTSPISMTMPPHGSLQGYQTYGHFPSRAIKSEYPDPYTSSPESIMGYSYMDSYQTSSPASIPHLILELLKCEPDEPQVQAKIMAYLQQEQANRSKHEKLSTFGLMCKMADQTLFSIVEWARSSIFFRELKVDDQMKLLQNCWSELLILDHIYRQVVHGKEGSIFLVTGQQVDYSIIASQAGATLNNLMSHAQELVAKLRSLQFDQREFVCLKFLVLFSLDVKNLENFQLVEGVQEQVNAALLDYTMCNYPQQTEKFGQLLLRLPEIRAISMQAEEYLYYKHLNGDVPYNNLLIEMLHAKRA
# Only a part is listed here, and it is no random draw. Calls of active or inactive are those of the source.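 How the source made its calls: active means inhibition above the mean inhibition of all tested compounds plus 3 SD (cut at about 73% in these data); inactive means the rest.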
# Molecular target: Nuclear receptor subfamily 5 group A member 2 (Homo sapiens) (UniProt O00482)
# Assay: reduction of NR5A2-driven StAR reporter activity – cell-based, luminescence, HEK293T, StAR-luciferase reporter, primary screen (AID 602396);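 further: 0% = DMSO wells and 100% = reporter-only cells lacking LRH-1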
# Conditions: LRH-1 transfected, 24 h, at 3.6 µM, hits give high values
row,Structure (SMILES),inhibition
1,Cc1cc(C)cc(OP(C)(N)=O)c1 (configuration not stated),inactive: 2.39%
2,COc1ccccc1OP(C)(=O)Nc1cc(Cl)ccc1C (configuration not stated),inactive: 6.64%
3,COc1ccc(OP(C)(=O)Nc2cccc(F)c2)cc1 (configuration not stated),inactive: -17.9%
4,COc1ccccc1OP(C)(=O)Nc1ccc(C)cc1 (configuration not stated),inactive: 7.94%
5,Cc1ccc(NP(C)(=O)Oc2ccccc2)c(C)c1 (configuration not stated),inactive: -6.62%
6,CCOC(=O)c1ccc(NP(C)(=O)Oc2ccccc2)cc1 (configuration not stated),inactive: -7.99%
7,O=[N+]([O-])c1ccc2c(c1)C=Nc1ccccc1O2,inactive: 13.8%
8,CC(C)(C)c1ccc(OP(C)(=O)Nc2ccc(SC(F)(F)F)cc2)cc1 (configuration not stated),inactive: 12.2%
9,Cc1cccc(C)c1OP(C)(N)=O (configuration not stated),inactive: 0.02%
10,O=[N+]([O-])c1cc([N+](=O)[O-])c(Nc2cccnc2)c([N+](=O)[O-])c1,inactive: -1.71%
11,COc1ccccc1-c1ccccn1.O=[N+]([O-])c1cc([N+](=O)[O-])c(O)c([N+](=O)[O-])c1,inactive: 6.5%
12,CCN(CC)CCCOC(=O)C(O)(c1ccccc1)c1ccccc1,inactive: 10.6%
13,CP(=O)(Nc1ccccn1)Oc1ccc(Cl)cc1 (configuration not stated),inactive: 9.72%
14,CCOC(=O)c1ccc(NP(C)(=O)Oc2ccc(OC)cc2)cc1 (configuration not stated),inactive: 9.69%
15,O=[N+]([O-])c1cc([N+](=O)[O-])c(O)c([N+](=O)[O-])c1.c1ccc(Oc2ccncc2)cc1,inactive: -1.83%
16,CCOP(C)(=S)SCC(=O)NC(C)C(=O)O (configuration not stated),inactive: 21%
17,CP(=O)(NC(=O)Nc1ccccc1)Oc1ccccc1 (configuration not stated),inactive: 35.3%
18,CCc1ccc(OP(C)(=O)N2CCN(c3ccc([N+](=O)[O-])cc3)CC2)cc1 (configuration not stated),inactive: 17.4%
19,Cc1cc(C)cc(OP(C)(=O)Nc2ccc(SC(F)(F)F)cc2)c1 (configuration not stated),inactive: 17.9%
20,Cc1ccc(Nc2c([N+](=O)[O-])cc([N+](=O)[O-])cc2[N+](=O)[O-])cc1,inactive: 22.7%
21,Cc1cccc(C)c1OP(C)(=O)Nc1ccc(SC(F)(F)F)cc1 (configuration not stated),inactive: -45.8%
22,CP(=O)(Nc1ccc(SC(F)(F)F)cc1)Oc1ccc(Cl)cc1 (configuration not stated),inactive: 0.65%
23,CP(=O)(Oc1ccccc1)OC(c1ccccc1)C(F)(F)F (configuration not stated),inactive: -17.8%
24,CP(=O)(Nc1ccccc1Br)Oc1ccccc1 (configuration not stated),inactive: 12.7%
25,COc1ccccc1OP(C)(=O)Nc1ccccc1 (configuration not stated),inactive: 5.85%
26,CP(=S)(Nn1cnnc1)Oc1ccccc1 (configuration not stated),inactive: -1.74%
27,COc1ccc(-c2ccccn2)cc1.O=[N+]([O-])c1cc([N+](=O)[O-])c(O)c([N+](=O)[O-])c1,inactive: -29.8%
